Target: Sodium-dependent noradrenaline transporter (Homo sapiens) (UniProt P23975)
Assay: SLC6A2 noradrenaline transporter inhibitors, dose response, HEK293 JumpIn overexpressing cells, impedance (AID 1745860)
Conditions: HEK293 JumpIn SLC6A2 OE, impedance TRACT

Protein sequences, listed by entry. Tags and fused reporters are not part of them.
UniProt P23975, whole entry, looked up: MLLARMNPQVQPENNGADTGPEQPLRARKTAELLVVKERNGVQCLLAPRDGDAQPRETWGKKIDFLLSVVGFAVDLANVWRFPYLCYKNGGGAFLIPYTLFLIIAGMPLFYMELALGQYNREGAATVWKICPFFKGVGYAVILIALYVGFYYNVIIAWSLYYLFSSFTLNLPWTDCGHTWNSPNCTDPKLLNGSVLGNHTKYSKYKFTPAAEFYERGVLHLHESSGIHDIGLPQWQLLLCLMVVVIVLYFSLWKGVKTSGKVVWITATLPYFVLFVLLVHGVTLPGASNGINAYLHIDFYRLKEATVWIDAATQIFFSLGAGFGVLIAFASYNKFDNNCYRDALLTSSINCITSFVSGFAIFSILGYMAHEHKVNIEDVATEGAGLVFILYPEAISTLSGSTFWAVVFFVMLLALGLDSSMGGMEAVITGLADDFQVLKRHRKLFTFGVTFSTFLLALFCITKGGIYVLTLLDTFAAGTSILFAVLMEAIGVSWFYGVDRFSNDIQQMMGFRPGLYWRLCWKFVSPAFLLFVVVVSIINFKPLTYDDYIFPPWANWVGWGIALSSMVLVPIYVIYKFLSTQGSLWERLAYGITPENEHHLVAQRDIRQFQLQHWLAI

## CC(NC(C)(C)C)C(=O)c1cccc(Cl)c1 (stereo unspecified)
  IC50: 12.6 µM

— PubChem BioAssay AID1745860
